Measured values from patent US8778342B2, “Antibody therapy” (Immunomedics, Inc., priority 2002, dated 2014).

System: TT tumors
Test: Naked anti-CEA MAb alone on growth of TT tumors in nude mice

| Substance | effect on tumor growth (specificity of treatment) (0.5 mg/mouse i.v. one day after TT cells, then three weekly doses) | mean tumor volume as % of the size of tumors in the untreated animals (2 lowest treatment groups (0.125 mg and 0.25 mg weekly), between day-21 and day-49) |
| --- | --- | --- |
| hLL2: negative control humanized MAb, anti-CD22 [reference compound] | did not slow tumor growth |  |
| hMN-14: humanized (CDR-grafted) Class III anti-CEA monoclonal antibody MN-14, naked |  | 27-40% |
